## Yeast mating assay 2: variants of the scFv Ab-95

Values reported by Engelhart et al. 2022, doi:10.1038/s41597-022-01779-4 (FLAb copy).

Binding partner: SARS-CoV-2 spike HR2 peptide, sequence PDVDLGDISGINAS.

Ab-95 is the parent antibody, in scFv form: VH, then the linker GGGGSGGGGSGGGGS, then VL. The heavy chain is unchanged in all variants.
VH: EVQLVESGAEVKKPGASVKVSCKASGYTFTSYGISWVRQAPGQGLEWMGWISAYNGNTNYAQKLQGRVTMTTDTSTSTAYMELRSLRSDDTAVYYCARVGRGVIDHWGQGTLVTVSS
VL: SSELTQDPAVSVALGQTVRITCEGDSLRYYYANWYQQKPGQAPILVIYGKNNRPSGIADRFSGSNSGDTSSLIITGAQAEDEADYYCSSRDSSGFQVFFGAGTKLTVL

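Variants in AAYL52 differ from the parent at up to three CDR positions; double and triple changes were sampled at random. AlphaSeq pools MATa yeast showing the antibodies with MATalpha yeast showing the peptide. Pairs that bind mate more often; barcode pairs of the diploids are counted by sequencing. Scores were corrected for input abundance and mapped to Kd with protein pairs of known affinity run in the same pool. Mating was done three times.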

Variants are written as CDR1, CDR2 and CDR3 of the light chain (limits as in the source). Parent: EGDSLRYYYAN, GKNNRPS, SSRDSSGFQVF. This list gathers variants with a substitution at Y30 (VL, numbered from residue 1). Values are log10 of the apparent Kd in nM; lower means stronger binding. The mean shown is taken over the replicates in which the pair was detected. Where no diploid with the target was found in that replicate, the entry reads "n.d.": below detection, most likely a poor binder, though not proof of it. Three control strains display no target. For library AAYL52, 28% of the pairings with them gave a signal, with a median of 3.91 and one signal in twenty below 2.90, so weak values seen in few replicates may be background.

| CDR-L1 | CDR-L2 | CDR-L3 | log10 Kd, replicates | mean log10 Kd (nM) |
|---|---|---|---|---|
| EGKSLRYIYAN | GKNNRPS | SSRDSSGHQVF | 3.57 / 3.24 / 3.45 | 3.42 |
| EGDSLRYVHAN | GKNNRPS | SSRDSSGFQVF | 1.57 / 1.61 / 1.75 | 1.64 |
| PGDSLRYVYAN | GKNNRPS | SSRDSYGFQVF | 4.46 / n.d. / n.d. | 4.46 |
| EGDSLRYRYAN | GKNNRPS | SSRDSSSFLVF | n.d. / 3.45 / n.d. | 3.45 |
| EGDSLRYQYAN | GKNNRPS | SSRDVSGFQVF | 0.86 / 0.96 / 0.42 | 0.75 |
| EGDSLQYSYAN | GKNNRPS | SIRDSSGFQVF | 1.13 / 1.08 / 0.54 | 0.92 |
| EGDSLRYNYAN | GKNNRPS | SSRDSSPFQVF | 0.90 / 0.78 / 0.35 | 0.68 |
| EGDSLRYHRAN | GKNNWPS | SSRDSSGFQVF | 3.17 / 3.51 / 3.17 | 3.28 |
| EGDSLRYLTAN | GKNNRPS | STRDSSGFQVF | 3.18 / 3.76 / 2.71 | 3.22 |
| ECDSLRYCYAN | GKNNRPS | SSTDSSGFQVF | 5.45 / n.d. / n.d. | 5.45 |
| EGNSLRYMYAN | GKNNRPS | SSRDSSGDQVF | 2.61 / 2.70 / 2.31 | 2.54 |
| EGDSLRYGWAN | GKNNRPS | SSRDQSGFQVF | 1.00 / 0.90 / 0.40 | 0.77 |
| IGDSLRYKYAN | GKNNRPS | SSRDSSGFQVF | 1.57 / 1.31 / 1.10 | 1.32 |
| EGDSLRMMYAN | GKNNRNS | SSRDSSGFQVF | 2.00 / 1.73 / 1.34 | 1.69 |
| EGDSLRIEYKN | GKNNRPS | SSRDSSGFQVF | n.d. / n.d. / n.d. | n.d. |
| EGDSLRYIYAN | EKNNRSS | SSRDSSGFQVF | 2.15 / 2.89 / 2.00 | 2.35 |
| EGDSLRYQYAN | GKNNRPS | SSRDSLGFIVF | 2.89 / 5.25 / 2.67 | 3.60 |
| EGDSLRYFYAN | GKNNRPS | SSRDSPGFQVF | 3.04 / 2.05 / 2.66 | 2.58 |
| EGDSLRYTYAN | GKNNRCS | SSRISSGFQVF | 2.97 / 2.32 / 2.16 | 2.48 |
| EGDSLRYWYAN | GKNNRPS | SKRDSSGFQSF | n.d. / n.d. / n.d. | n.d. |
| EGDSLRYAYAN | GKNNRPS | SIRDSSGFQVQ | 1.59 / 1.55 / 1.00 | 1.38 |
| EGYSLRYFYAD | GKNNRPS | SSRDSSGFQVF | 5.43 / n.d. / 3.91 | 4.67 |
| EGDMLRYDYAN | GKNNRPS | QSRDSSGFQVF | 2.70 / 4.05 / 3.39 | 3.38 |
| AGDSLRYNYAD | GKNNRPS | SSRDSSGFQVF | 1.61 / 1.43 / 1.16 | 1.40 |
| EGDSLRNCYAN | GKNNRPS | SSRDSSGDQVF | 2.15 / 2.01 / 1.56 | 1.91 |
| EGDSLRYRYAN | GDNNRPS | SSRDSSGFNVF | 0.90 / 0.93 / 0.24 | 0.69 |
| EGDSLRYPNAN | GKNNRPS | SSCDSSGFQVF | 1.54 / 1.30 / 1.04 | 1.29 |
| EGDSLRYEYNN | GKNNFPS | SSRDSSGFQVF | n.d. / 4.78 / n.d. | 4.78 |
| EGDSLRYGYAN | WKNNRPS | SSRDSSGFQFF | n.d. / n.d. / n.d. | n.d. |
| ECDGLRYQYAN | GKNNRPS | SSRDSSGFQVF | 2.57 / 2.03 / 1.67 | 2.09 |
| EGDSNRYWYAN | GKNNTPS | SSRDSSGFQVF | n.d. / n.d. / n.d. | n.d. |
| ENDSLRFHYAN | GKNNRPS | SSRDSSGFQVF | 2.75 / 2.95 / 2.27 | 2.66 |
| EGDSLRYSYAN | GKNNRCS | SSRDSSAFQVF | n.d. / 4.38 / 2.37 | 3.37 |
| EGDSLRYKYAN | GKNNRPS | QWRDSSGFQVF | 3.30 / 2.87 / 3.44 | 3.20 |
| EGDSLAYTYAN | GKNNRPS | SSRDSSGFQPF | 1.99 / 2.02 / 1.89 | 1.97 |
| EGDSLRYSYAN | GKKNRRS | SSRDSSGFQVF | 4.36 / 3.96 / 4.16 | 4.16 |
| EGCSLRYTYAN | GKNNRPS | SNRDSSGFQVF | 3.65 / n.d. / 3.97 | 3.81 |
| EGDSVRYQNAN | GKNNRPS | SSRDSSGFQVF | 1.48 / 1.46 / 1.09 | 1.34 |
| EGDSKRYQYAN | GKNNRPS | SSRDSSGFQVF | 1.59 / 1.54 / 1.25 | 1.46 |
| WGDSLRYAYAN | GKNNRPS | SSGDSSGFQVF | 1.68 / 1.76 / 1.57 | 1.67 |
| EGDSLRYSYAN | GKNNRPS | SGVDSSGFQVF | n.d. / n.d. / n.d. | n.d. |
| WGDSLRYMYAN | GKNNRFS | SSRDSSGFQVF | 2.67 / 2.50 / 2.19 | 2.46 |
| EGDSLRYHYAY | GKNNRPS | SSRDSSGFQVF | 1.77 / 1.61 / 1.68 | 1.69 |
| EGDSLRYEYAN | GKNNRIS | SSRDASGFQVF | 1.85 / 1.67 / 1.29 | 1.60 |
| EGDVLRYLYAN | GKNNRPS | SSRDSSGFQVF | 2.31 / 2.42 / 2.16 | 2.30 |
| EGDSLRYFYAN | GKNNRIS | SSRDSSTFQVF | 3.60 / n.d. / 3.71 | 3.65 |
| EGDSLRYRYAD | GKNNRPS | SSHDSSGFQVF | 2.47 / 2.86 / 3.00 | 2.78 |
| EGDSLRYWYAN | GKNNRPS | SSRDPSGFQVC | n.d. / n.d. / 3.91 | 3.91 |
| QGDSLRYIYAN | GKNNRPS | SSRDSSGFQVF | 3.07 / 2.92 / 3.57 | 3.19 |

A selection of 4 entries from above:

CDR-L1	CDR-L2	CDR-L3	log10 Kd, replicates	mean log10 Kd (nM)
EGDSLRYEYAN	GKNNRIS	SSRDASGFQVF	1.85 / 1.67 / 1.29	1.60
AGDSLRYNYAD	GKNNRPS	SSRDSSGFQVF	1.61 / 1.43 / 1.16	1.40
EGDSLRYHRAN	GKNNWPS	SSRDSSGFQVF	3.17 / 3.51 / 3.17	3.28
PGDSLRYVYAN	GKNNRPS	SSRDSYGFQVF	4.46 / n.d. / n.d.	4.46